## Antibody variant affinities, Ab-14 light chain, assay 1

Values reported by Engelhart et al. 2022, doi:10.1038/s41597-022-01779-4 (FLAb copy).

Target: peptide PDVDLGDISGINAS, taken from heptad repeat 2 (HR2) of SARS-CoV-2 spike.

Ab-14 is the parent antibody, in scFv form: VH, then three GGGGS repeats, then VL. The heavy chain is unchanged in all variants.
VH: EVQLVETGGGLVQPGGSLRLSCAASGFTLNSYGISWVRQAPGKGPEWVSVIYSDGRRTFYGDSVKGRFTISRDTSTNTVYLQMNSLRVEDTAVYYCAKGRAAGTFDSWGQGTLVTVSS
VL: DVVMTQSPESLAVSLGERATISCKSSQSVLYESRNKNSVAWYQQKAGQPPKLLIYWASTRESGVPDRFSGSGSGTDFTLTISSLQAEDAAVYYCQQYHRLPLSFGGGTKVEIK

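The starting antibody came from a phage panning campaign against this peptide. In library AAYL50, one, two or three CDR residues were substituted; doubles and triples were drawn at random. In AlphaSeq, yeast of one mating type display the scFv and yeast of the other type display the target. Mating (16 h, 30 °C) was followed by selection of diploids and sequencing of their barcodes. Read counts were normalised to the haploid input and turned into Kd by a linear fit to BCL2-family pairs of known affinity, for each replicate. Each pool was mated in three replicate cultures.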

The parent's light chain CDRs are KSSQSVLYESRNKNSVA, WASTRES, QQYHRLPLS; each variant's own CDRs replace them letter for letter.
Values are log10 of the apparent Kd in nM; lower means stronger binding.
The mean shown is taken over the replicates in which the pair was detected.
An entry "no signal" has no value in the source: the pair was not observed among the diploids in any replicate. This suggests poor binding but is not conclusive.
Order: sorted from the lowest average up, undetected variants last.

Variant KSDQSVLYESRNKNSVA | AASTRES | QQYHRLPLW gave 0.04 (3 of 3 replicates).
Variant KSKQSVLGESRNKNSVA | WTSTRES | QQYHRLPLS gave 1.26 (3 of 3 replicates).
Variant LSSQSVLYESRNKNSVA | WASTREK | SQYHRLPLS gave 1.41 (2 of 3 replicates).
Variant KSSQSVLYEERCKNSVA | WASTRES | QQYHRLPIS gave 1.44 (3 of 3 replicates).
Variant KSSQSSLYESRNKNSVA | WAKTREM | QQYHRLPLS gave 1.53 (3 of 3 replicates).
Variant ISSQSVLYESRGKNSVA | WASTRES | QQYHELPLS gave 1.53 (3 of 3 replicates).
Variant KSSQSVLKESRYKNSVA | WASTRES | QQYHRLLLS gave 1.53 (3 of 3 replicates).
Variant KSSQSVLYESRNKNSVA | WASTRES | QQYHHSPLP gave 1.59 (3 of 3 replicates).
Variant KSSYSVLYESRNKNSVA | WASTREK | QQYHRLPLS gave 1.61 (3 of 3 replicates).
Variant KSSQSVCYEWRNKNSVA | WASTRDS | QQYHRLPLS gave 2.15 (3 of 3 replicates).
Variant KSSQSVLYLHRNKNSVA | WASTREV | QQYHRLPLS gave 2.57 (3 of 3 replicates).
Variant KSSQSVLYESRNKNSQA | WASTRES | KQEHRLPLS gave 2.81 (1 of 3 replicates).
Variant KSMQSVLYESRNKNSVA | WASTRES | CNYHRLPLS gave 3.28 (1 of 3 replicates).
Variant KSGQSVYYESRNKNSVA | WASTRES | QFYHRLPLS gave 3.60 (3 of 3 replicates).
Variant PSSQSVLYESRNVNSVA | WASTRES | QQYHRLPLW gave 3.88 (1 of 3 replicates).
Variant KSSQSVLYESRNKNSVA | WASTRVS | QIYHRLNLS gave 3.94 (2 of 3 replicates).
Variant KSSQSVLYESGNMNSGA | WASTRES | QQYHRLPLS gave 4.13 (1 of 3 replicates).
Variant NSSQSVLYESRNKNSYA | WASTRES | QQYHRLPLS gave 4.14 (1 of 3 replicates).
Variant KSSQSVNYESRNKMSVA | WASTRES | QVYHRLPLS gave 4.26 (1 of 3 replicates).
Variant KSSQSVLYESRNKNSVA | IPSSRES | QQYHRLPLS gave 4.49 (2 of 3 replicates).
Variant KSSQSHLYESRNKNSVA | WTPTRES | QQYHRLPLS gave 4.51 (2 of 3 replicates).
Variant KSSQSFLYESFNKNSVA | WASTRES | QQYHRLPQS gave 4.54 (1 of 3 replicates).
Variant KSSQSVLYESRNKNSVG | WASTRES | QQYHRVPMS gave 4.56 (1 of 3 replicates).
Variant KSSTSVLYESRNKNSVA | WASTFES | EQYHRLPLS gave 5.13 (2 of 3 replicates).
Variant KSSQSVLYESRKKNSVA | WASTRES | QQYHRNSLS gave no signal (0 of 3 replicates).
Variant KSSQSVLYESRGKNSVI | IASTRES | QQYHRLPLS gave no signal (0 of 3 replicates).
Variant KSSQMVLHESRNKNSVA | WISTRES | QQYHRLPLS gave no signal (0 of 3 replicates).
Variant KTSQSVLYESRGKNSVA | WTSTRES | QQYHRLPLS gave no signal (0 of 3 replicates).
Variant KSTFSVLYESRNKNSVA | WACTRES | QQYHRLPLS gave no signal (0 of 3 replicates).
Variant KSSQSVLYECRNKNSVD | WASTRES | QQYHRLPLE gave no signal (0 of 3 replicates).
Variant KSSQSVLYESRNKNSVA | WASTRES | QQAHRLPMV gave no signal (0 of 3 replicates).
Variant KSSASVMYESRNKNSVA | WASTRES | QQYLRLPLS gave no signal (0 of 3 replicates).
Variant KSSQSVLYESRNKNLVA | WASTREI | QQYHRLPVS gave no signal (0 of 3 replicates).
Variant KSSQSVLYESRNQNSVA | WVSTRES | QQYHRLPLS gave no signal (0 of 3 replicates).
Variant KSSQSVLYEIRPKNSVA | WASGRES | QQYHRLPLS gave no signal (0 of 3 replicates).
Variant KSSQSVLYESRNKNSVE | WASTRES | QNYQRLPLS gave no signal (0 of 3 replicates).

A selection of 4 entries from above:

CDR-L1,CDR-L2,CDR-L3,"mean, log10 nM",replicates with signal
KSSQSVLYEIRPKNSVA,WASGRES,QQYHRLPLS,no signal,0/3
KSSQSVCYEWRNKNSVA,WASTRDS,QQYHRLPLS,2.15,3/3
KSSASVMYESRNKNSVA,WASTRES,QQYLRLPLS,no signal,0/3
KSSQSVLYESRNKNSVA,IPSSRES,QQYHRLPLS,4.49,2/3

As a blank, each scFv also met three strains without target: over library AAYL50, 18% of these pairings were detected, typically at 4.19 and seldom below 2.99.
Parent in this assay: reference entry 0.65, copy in this library 1.68.